# The entries are a selection whose mix differs from that of the whole data set. Some of these compounds have results that are not shown, active ones among them. Inconclusive results are not listed. Activity calls are given as the source filed them. Calls come from the whole dose curve; as a rule, active = well fitted curve in either direction with a large enough effect; inconclusive = small, poorly fitted or top-dose-only effect, or another doubt; inactive = flat fitted curve, though single readings scatter.
# Tested on: Hsp90 C-terminal peptide / TPR2A (Hop) interaction, human
# Assay: qHTS Assay for Disrupters of an Hsp90 Co-Chaperone Interaction
# Conditions: AlphaScreen TPR2A-His6 binding biotin-Hsp90 C-terminal peptide; at 11 µM (top of the series) unless noted
# From the text: NIH Chemical Genomics Center [NCGC]
# NIH Molecular Libraries Screening Centers Network [MLSCN]
# Hsp90 (heat shock protein 90) is the essential molecular chaperone and it accounts for 1-2% of all cytosolic proteins and is critical for the activity of diverse cellular proteins that are involved in a variety of cellular processes, including development, cell cycle, and steroid hormone signaling. Its client proteins include signaling kinases such as IGF1R, Akt, v-Src, Raf-1; regulators of cell survival such as Bcr-Abl; and transcription factors such as mutated p53, estrogen and progesterone receptors. Hsp90 has emerged as an important target for cancer treatment due to its essential role in maintaining transformation and regulating the function of oncogenic signaling proteins.
# The in vivo function of Hsp90 is regulated by the binding and hydrolysis of ATP at its N-terminal. Geldanamycin binds to ATP site and inhibit Hsp90 function. Geldanamycin and its analogues are under clinical trials in cancer patients.
# This domain contains the binding site for tetratricopeptide repeat (TPR) domains on HOP (Hsp Organizing Protein). TPR is a structural motif used by a significant number of cochaperones by which the in vivo function of Hsp90 is regulated. TPR2A on HOP binds specifically to MEEVD motif of the C-terminal of Hsp90.
# A homogeneous AlphaScreen is developed to assess the interaction between TPR2A and MEEVD motif of the C-terminal of Hsp90 by using the isolated TPR2A domain and a synthesized 20mer Hsp90 C terminal peptide. AlphaScreen is two bead-based proximity-dependent chemical energy transfer luminescent assay platform. TPR2A-His-6 and biotinylated Hsp90 C terminal peptide will bring streptavidin donor beads and nickel chelate acceptor beads to a proximity range (less than 200 nm), and subsequently lead a chemical luminescent reaction upon exciting donor beads with 680 nm laser. Inhibition of TPR2A and MEEVD motif interaction by small molecules could attenuate or abolish this chemical luminescent reaction.
# Counter screening: Biotinylated-His-6 (PerkinElmer) can be utilized as a counter screen, as it serves as a linker to bring streptavidin beads and nickel chelate beads together. The counter screen can exclude alpha screen platform false positives due to small molecules being metal chelators, biotin analogues and imidazole analogues, or due to interfering with oxygen release from donor beads. Such an assay should be utilized to qualify any activity observed in this screen.
# NCGC Assay Protocol Summary:
# The assay was performed on 1536-well white plate (untreated solid bottom). Liquids were dispensed by 1536-well plate washer (Kalypsys, San Diego, CA). Plates were read on EnVision (PerkinElmer, Boston, MA).TPR2A-His6 was produced using a bacteria expression system and purified using a well developed method (Ghosh et al., 2000). Hsp90 C terminal 20-mer peptide with or without an N-terminal biotin group are synthesized using automated solid phase synthesis by the Yale Keck facility. The composition of assay buffer was (in mM) 25 HEPES, 100 KCl, 2 MgCl2 and 2 DTT; 0.1% BSA and 0.01% Tween-20. TPR2A-His6 binding to biotin-Hsp90 will bring streptavidin donor beads and nickel chelate acceptor beads (PerkinElmer) together and can be measured by Alpha reading by EnVision (PerkinElmer). Free Hsp90 blocks biotin-Hsp90 binding to TPR2 and serves as a positive control in the current asssay.
# The assay was performed at room temperature. […]
# % is set by controls: 0 for no effect and ±100 for the full control effect.
row,Structure (SMILES),"activity change, negative = inhibition"
1,CN(C)c1cccc(C(=O)NCC2(N(C)C)CCCCC2)c1,inactive: -3.22% [at 57 µM]
2,CN1CCC[C@H](OC(=O)[C@](O)(c2ccccc2)C2CCCC2)C1,inactive: -3.29%
3,O=C(OC1CN2CCC1CC2)C(CO)(c1ccccc1)c1ccccc1 (stereo not given),inactive: -6.03% [at 57 µM]
4,CN1CC[C@H](OC(=O)[C@](O)(c2ccccc2)C2CCCC2)C1,inactive: -1.41%
5,C=C(C)C#C[C@@](O)(C(=O)OC1CCN(C)CC1)c1ccccc1,inactive: -4.35%
